According to patent US20200268765A1, “METHOD OF TREATING MEDULLOBLASTOMA WITH AN EZH2 INHIBITOR” (Epizyme, Inc., priority 2015, published 2020):

What was measured:
[1] = tested on: medulloblastoma cells; test: Medulloblastoma cell growth (total cells per milliliter over time); assay type: cell-based; conditions: 0.5 μM, 2 μM and 6 μM
Text: FIG. 26A is a graph showing the concentration of medulloblastoma cells (total cells per milliliter) as a function of time (days) following treatment with GSK-126, a small molecule inhibitor of EZH2.
FIG. 26B is a graph showing the concentration of medulloblastoma cells (total cells per milliliter) as a function of time (days) following treatment with UNC 1999, a small molecule inhibitor of EZH2.
FIG. 26C is a graph showing the concentration of medulloblastoma cells (total cells per milliliter) as a function of time (days) following treatment with tazemetostat (EPZ 6438), a small molecule inhibitor of EZH2.
FIG. 26D is a graph showing the concentration of medulloblastoma cells (total cells per milliliter) as a function of time (days) following treatment with GSK-126, UNC 1999, and tazemetostat (EPZ 6438).
Medulloblastoma cells are treated with either a negative control (DMSO) or varying concentrations of tazemetostat (EPZ 6438): 0.5 μM, 2 μM and 6 μM. The total cells per milliliter of culture were counted each day for 10 days.

[2] = tested on: primary medulloblastoma cells; conditions: BrdU for 4 hours after 4 days treatment; FIG. 28C
Description: FIG. 28A is a schematic diagram depicting the process by which primary medulloblastoma cell growth is evaluated ex vivo.
A slice culture of medulloblastoma was freshly isolated from a subject.
A patient having medulloblastoma underwent surgery to remove a slice of tumor tissue for testing. The medulloblastoma slice was cultured ex vivo on tissue supporting inserts (FIG. 28A). […] Following the treatment period, the cells of the slice culture were treated with BrdU for 4 hours prior to disaggregation and sorting by flow cytometry.

[3] = tested on: SMARCB1-deleted G401 cells; conditions: G401 versus RD cells, re-plated on day 7; FIGS. 10C-10F

SMILES: CCN(c1cc(-c2ccc(CN3CCOCC3)cc2)cc(C(=O)NCc2c(C)cc(C)[nH]c2=O)c1C)C1CCOCC1 [tazemetostat]
- concentration dependence of the effect on medulloblastoma cell growth [1]: concentration dependent
- number of cells synthesizing DNA (incorporation of BrdU) [2]: significantly decreased
- inhibition of proliferation [3]: Selective inhibition of proliferation
